Data: PubChem BioAssay AID2129 (The Scripps Research Institute Molecular Screening Center, 2009)
The list shows a part of the results, in another mix than the full data. Some tests of the compounds listed are not included; inactive here does not mean inactive elsewhere. The source made the active and inactive calls.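 The calls were made as follows: active = inhibition above the mean of all tested compounds plus 3 SD, cutoff set per campaign (cut at about 30% in these data); inactive = the rest.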

The chains behind the UniProt entries cited, without tags or fusion partners.
UniProt Q07817, whole entry: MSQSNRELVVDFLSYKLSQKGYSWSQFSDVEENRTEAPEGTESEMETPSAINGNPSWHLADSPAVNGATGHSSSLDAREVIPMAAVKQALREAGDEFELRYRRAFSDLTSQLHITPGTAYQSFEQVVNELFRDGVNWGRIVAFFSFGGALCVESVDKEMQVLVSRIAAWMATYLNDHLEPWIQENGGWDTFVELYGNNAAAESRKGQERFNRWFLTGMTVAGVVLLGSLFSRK

The molecules below were run against Bcl-2-like protein 1 (Homo sapiens) (UniProt Q07817) (assay: inhibitors of human Bcl-xL, primary screen, biochemical, fluorescence polarization, HTS (AID 2129;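 also: 0% = DMSO wells and 100% = unlabeled Bim-BH3 peptide competitor; inhibitors lower millipolarization by displacing the labeled peptide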)). Settings: GST-Bcl-xL / FITC-Bim BH3 peptide fluorescence polarization; at 10.9 µM; stronger effect = higher value.

SMILES | inhibition
CN(C)C1(CNC(=O)c2ccc(Br)cc2)CCCCC1 | inactive: -1.13%
COc1cc(C(=O)NCC2(N(C)C)CCCCC2)c([N+](=O)[O-])cc1OC | inactive: -0.6%
COc1cccc(C(=O)NCC2(N3CCCCC3)CCCCC2)c1 | inactive: 5.2%
COc1ccc(Cl)cc1C(=O)NCC1(N(C)C)CCCCC1 | inactive: 11.6%
O=C(NCC1(N2CCCCC2)CCCCC1)c1cccc(Cl)c1 | inactive: -1.74%
O=C(OC1CN2CCC1CC2)C(CO)(c1ccccc1)c1ccccc1 (centres undefined) | inactive: 6.79%
COc1ccc(Br)c(C(=O)NCC2(N3CCCCC3)CCCCC2)c1 | inactive: 3.61%
CC(C)Oc1ccc(C(=O)NCC2(N(C)C)CCCCC2)cc1 | inactive: 2.53%
CN(C)c1cccc(C(=O)NCC2(N(C)C)CCCCC2)c1 | inactive: 1.08%
O=C(NCC1(N2CCCCC2)CCCCC1)c1cc([N+](=O)[O-])ccc1Cl | inactive: -10.1%
CN1[C@@H]2CC[C@H]1CC(OC(=O)C(O)(c1ccccc1)c1ccccc1)C2 (some centres undefined) | inactive: 3.63%
CCN(CC)CC(C)C(C)OC(=O)C(O)(c1ccccc1)c1ccccc1 (centres undefined) | inactive: -5.76%
COc1cc(SC)ccc1C(=O)NCC1(N(C)C)CCCCC1 | inactive: 6.97%
CC(C)N1C(=O)CC2(CCN(CCOC(=O)C(O)(c3ccccc3)c3ccccc3)CC2)C1=O | inactive: 4.12%
Cc1ccc(C(=O)NCC2(N3CCCCC3)CCCCC2)cc1 | inactive: 6.27%
Cc1ccccc1C(=O)NCC1(N2CCCCC2)CCCCC1 | inactive: -1.5%
CN(C)c1ccc(C(=O)NCC2(N(C)C)CCCCC2)cc1 | inactive: 3.48%
CN(C)C1CCCC1OC(=O)C(O)(c1ccccc1)c1ccccc1 (centres undefined) | inactive: 3.69%
C=CCN1CCN(CCOC(=O)C(O)(c2ccccc2)c2ccccc2)CC1 | inactive: 2.63%
O=C(NCC1(N2CCCCC2)CCCCC1)c1cc(F)c(F)cc1Cl | inactive: 3.19%
COc1ccc(C(=O)NCC2(N(C)C)CCCCC2)cc1 | inactive: 1.62%
CCN1CCCC(OC(=O)C2(O)c3ccccc3C=Cc3ccccc32)C1 (centres undefined) | inactive: 8.44%
Cc1cc(C(=O)NCC2(N3CCCCC3)CCCCC2)ccc1[N+](=O)[O-] | inactive: 5.4%
O=C(NCC1(N2CCCCC2)CCCCC1)c1cccc(Br)c1 | inactive: 0.15%
